Yeast mating assay 2: variants of the scFv Ab-91

Source: Engelhart et al. 2022 (doi:10.1038/s41597-022-01779-4), MIT Lincoln Laboratory and A-Alpha Bio; data file from the FLAb repository.

Target: peptide PDVDLGDISGINAS, taken from heptad repeat 2 (HR2) of SARS-CoV-2 spike.

Each scFv is VL, the linker GGGGSGGGGSGGGGS, VH, as in the parent Ab-91, and differs from it in the CDRs of the heavy chain only.
VL: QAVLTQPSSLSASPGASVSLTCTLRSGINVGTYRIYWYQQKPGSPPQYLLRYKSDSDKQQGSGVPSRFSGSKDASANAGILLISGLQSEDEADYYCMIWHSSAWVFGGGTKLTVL
VH: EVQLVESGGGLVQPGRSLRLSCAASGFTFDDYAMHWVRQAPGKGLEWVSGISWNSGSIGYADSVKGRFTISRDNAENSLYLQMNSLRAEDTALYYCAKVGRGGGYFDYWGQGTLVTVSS

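The starting antibody came from a phage panning campaign against this peptide. The library (AAYL51) carries one to three amino acid substitutions per variant, with no insertions or deletions. AlphaSeq pools MATa yeast showing the antibodies with MATalpha yeast showing the peptide. After mating in shaken culture at 30 °C for 16 h, diploids were selected and their barcode pairs sequenced. The ratio of observed to expected reads was calibrated, replicate by replicate, on BCL2-family standards whose Kd was known from biolayer interferometry. The assay was run in three technical replicates.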

Variants are written as CDR1, CDR2 and CDR3 of the heavy chain (limits as in the source). Parent: GFTFDDYAMH, GISWNSGSIGYADSVK, VGRGGGYFDY.
Each Kd is an estimate from the mating assay, the geometric mean of the replicates in which the pair was seen; lower is stronger.
"nd" means that the variant was in the library but no mating with the target was seen in any replicate; the authors take this as a sign of poor binding, and no number exists.
Empty control strains, which show no peptide, gave a signal in 21% of pairings with library AAYL51; the median was 34 µM and 95% of these signals were weaker than 1.8 µM. No background was subtracted.
Parent in this assay: reference entry 72 nM, copy in this library 7.5 nM.

| # | CDR-H1 | CDR-H2 | CDR-H3 | Kd (apparent) | seen in |
|---|---|---|---|---|---|
| 1 | GFTFDDYAMC | GISWNSGSIGYADSCK | VGRLGGYFDY | 350 µM | 1 of 3 |
| 2 | GFTFDDYAMH | GISWNSGSIGYADSVG | VTRGLGYFDY | 120 µM | 2 of 3 |
| 3 | GFTFDDYAMH | GNSWNSGSEGYADSVK | VGRGGGYKDY | 320 µM | 2 of 3 |
| 4 | GFTFDDYAMH | GISWNSGVIGYADSVK | VGRGGWYFDY | 100 µM | 1 of 3 |
| 5 | GFTFDDYVMH | GISWNSGSIGHADSVK | FGRGGGYFDY | nd | 0 of 3 |
| 6 | GFTFDDYAMH | WISWNSGSIGYADSVK | VGRGGGYRDQ | nd | 0 of 3 |
| 7 | GFTFDDYAMH | DISANSGSIGYADSVK | VGRYGGYFDY | 730 µM | 2 of 3 |
| 8 | GFSFDDYAMH | GISWNSGSIGYADSVK | VGRGGGARDY | nd | 0 of 3 |
| 9 | GFTPDDYAMH | GISTNSGSIGYLDSVK | VGRGGGYFDY | nd | 0 of 3 |
| 10 | GFTFDDYAMH | GISWNSGSIGYAMQVK | VGRGGGYFDY | 6.4 µM | 3 of 3 |
| 11 | GFTFDDYAMH | GISWNIGSIGYAISVK | VGRGGGYFDY | nd | 0 of 3 |
| 12 | GFTFDMYAMH | GISWNSGSIGYADSVK | VFRGGGYFDY | 2.9 nM | 3 of 3 |
| 13 | GFTFDEYARH | GISWNSGSIGYADSVK | VGRGGGEFDY | nd | 0 of 3 |
| 14 | GFTFGDYAMH | GISWNSQSIGYADSVK | VGRGGGYEDY | 2.4 nM | 3 of 3 |
| 15 | GFTFDDYAMH | GISWNSGSCYYADSVK | VGREGGYFDY | nd | 0 of 3 |
| 16 | YFTFDDYAMH | GIHWNSGSIGYADSVK | VGRIGGYFDY | nd | 0 of 3 |
| 17 | GFTFDDYAMH | GISWNSASIGYADSVK | VGRGDGYFDY | nd | 0 of 3 |
| 18 | GFTFDDYAMH | QSSWNSGSIGYADSVK | VGRSGGYFDY | 170 µM | 2 of 3 |
| 19 | GFTFDDYAMQ | GISWNSGSIGYAFSVK | VGRGGGYSDY | nd | 0 of 3 |
| 20 | GFSFDDYAMH | GISWNSGSIGYADSVK | VGRGGGYDDY | 7.1 µM | 1 of 3 |
| 21 | GFTFDDYAMH | GISGNSGSIGYADSVC | VGRGGGYFDY | 260 nM | 3 of 3 |
| 22 | GFTGDDYAMH | GISWNSGEIGYADSVK | VGRGGGYFDK | nd | 0 of 3 |
| 23 | GFTFWDYAMK | GISWNSGSIGYADSVK | VGRGGMYFDY | nd | 0 of 3 |
| 24 | GVTFDWYAMH | GISWNSISIGYADSVK | VGRGGGYFDY | nd | 0 of 3 |
| 25 | GFTFDDYAMH | GISWESGSIGYADSVK | VGQGGGYFDY | 45 nM | 3 of 3 |
| 26 | GFTFDDYAMH | GISANSGSIGYADSVK | AGPGGGYFDY | 86 µM | 2 of 3 |
| 27 | GFTFDDYAMH | GISCNSGSIGHADSVK | VGRGHGYFDY | nd | 0 of 3 |
| 28 | GFTFDDYAMH | GISWNSHSIGYAISVK | VGRGGGYTDY | 28 µM | 1 of 3 |
| 29 | GFTNDDYAMH | GISWNSGSIGYADSVI | VGRGGGYFTY | 64 µM | 3 of 3 |

The remaining entries, values ahead:

| # | Kd (apparent) | seen in | CDR-H1 | CDR-H2 | CDR-H3 |
|---|---|---|---|---|---|
| 30 | 8.7 µM | 2 of 3 | GFVFDDYAMH | GRSWNSGSIGYADSVK | VGRGGGYFDY |
| 31 | 20 µM | 1 of 3 | GFTFDDYAMH | GISPNSGSIGYADSVK | VGRVGGYFDY |
| 32 | nd | 0 of 3 | GFTFDDYAMH | GISWNSGSIGRADSVK | VGRGGGPFDQ |
| 33 | 2.2 µM | 3 of 3 | GFTFDDYAMH | GISWNSGSIGYAESWK | WGRGGGYFDY |
| 34 | 82 µM | 1 of 3 | GFTFDDYAMH | GISCNSNSIGYADSDK | VGRGGGYFDY |
| 35 | nd | 0 of 3 | GFTNDDYAMH | GISWNSGSIGYARSVK | VPRGGGYFDY |
| 36 | nd | 0 of 3 | GFTFDDYAMF | GISWNPDSIGYADSVK | VGRGGGYFDY |
| 37 | 6.7 µM | 1 of 3 | GFTFDDYAMH | GISWNSKSIGYTDSVK | VGRGAGYFDY |
| 38 | 34 nM | 3 of 3 | GFTFNDYAMH | GISWNSGSIGYADSVK | VGRVGGYFDP |
| 39 | 270 µM | 1 of 3 | GFTFDDYALH | GIRWNSGSIGYADSCK | VGRGGGYFDY |
| 40 | 9.4 µM | 1 of 3 | GFTFLDSAMH | GISWNSGSIGYADSVK | VGRGMGYFDY |
| 41 | 1.9 µM | 2 of 3 | GFTFDDYAMH | GISWNSGSIGYAYSVK | VGRGDGYFDY |
| 42 | nd | 0 of 3 | GFTFDDYAMH | GISWNSMSIGEADSVK | VGRGGSYFDY |
| 43 | 2.0 mM | 1 of 3 | GFTFDDYAMH | GISWNSGSIGYKDSVK | VRRGGGYQDY |
| 44 | 18 µM | 1 of 3 | RFTFDDYAMH | GISWNSGIIGYADSVK | MGRGGGYFDY |
| 45 | nd | 0 of 3 | GFTFDDYAMH | GISWNKGSIVYADSVK | VGRGGFYFDY |
| 46 | nd | 0 of 3 | GFTFDLYAMH | GISWNSTSIGYADSVK | EGRGGGYFDY |
| 47 | nd | 0 of 3 | GFYFDDYAMH | GISWNSGSIGYADSVT | PGRGGGYFDY |
| 48 | nd | 0 of 3 | GFTFDDYAMH | GISWNSGSIGYADSVK | VGRPGGFFGY |
| 49 | 50 µM | 3 of 3 | GFTKDDYAMH | GISWNIGSIGYADSVK | VGRGGGYFDY |
| 50 | 170 µM | 2 of 3 | GFTFDDYVMH | GPSWNSGSGGYADSVK | VGRGGGYFDY |
| 51 | 100 µM | 2 of 3 | GFTFDDVAQH | GISWNSGSIGYADSEK | VGRGGGYFDY |
| 52 | nd | 0 of 3 | GFTFDDYAMH | GISWMSGSIPYADSVK | VGRIGGYFDY |
| 53 | 30 nM | 3 of 3 | GFTFFDYAMH | GISANSGSIGYADSVK | VGRGGGYFDY |
| 54 | nd | 0 of 3 | GCTFDDYAMH | GISWNSGSIGYADSNK | VGRGGGYFDY |
| 55 | nd | 0 of 3 | WFTFDDYAMH | GLSWNSGSIIYADSVK | VGRGGGYFDY |
| 56 | 17 µM | 1 of 3 | GFTFDLVAMH | GISWNSGSIGYATSVK | VGRGGGYFDY |
| 57 | nd | 0 of 3 | GFTFDDYDMH | GISWNSGSIGYADLVK | VGRGGAYFDY |
| 58 | 22 µM | 1 of 3 | GFTFQDYAMH | GISWSSGSIKYADSVK | VGRGGGYFDY |

Extract of 5 entries:

CDR-H1,CDR-H2,CDR-H3,Kd (apparent),seen in
YFTFDDYAMH,GIHWNSGSIGYADSVK,VGRIGGYFDY,nd,0 of 3
GFTFDDYAMH,WISWNSGSIGYADSVK,VGRGGGYRDQ,nd,0 of 3
GFTFWDYAMK,GISWNSGSIGYADSVK,VGRGGMYFDY,nd,0 of 3
GFVFDDYAMH,GRSWNSGSIGYADSVK,VGRGGGYFDY,8.7 µM,2 of 3
GFSFDDYAMH,GISWNSGSIGYADSVK,VGRGGGARDY,nd,0 of 3